# pIC50: −log10 of the molar value.
# Biological target: GroEL/GroES
structure (smiles),measurement,value
CC1=CCC(C(=O)/N=C2\CC=C(S(=O)(=O)O)c3cc(S(=O)(=O)O)cc(S(=O)(=O)O)c32)=C/C1=N/C(=O)C1=CC=C/C(=N\C(=O)/N=C2\C=CC=C(C(=O)/N=C3/CC(C(=O)/N=C4\CC=C(S(=O)(=O)O)c5cc(S(=O)(=O)O)cc(S(=O)(=O)O)c54)=CC=C3C)C2)C1,pIC50,4.80
